By UniProt entry, the sequences of proteins in these tests, tags left out. Where a name states a change or a piece, a line headed by the entry shows the natural chain unless it says otherwise.
UniProt P35414: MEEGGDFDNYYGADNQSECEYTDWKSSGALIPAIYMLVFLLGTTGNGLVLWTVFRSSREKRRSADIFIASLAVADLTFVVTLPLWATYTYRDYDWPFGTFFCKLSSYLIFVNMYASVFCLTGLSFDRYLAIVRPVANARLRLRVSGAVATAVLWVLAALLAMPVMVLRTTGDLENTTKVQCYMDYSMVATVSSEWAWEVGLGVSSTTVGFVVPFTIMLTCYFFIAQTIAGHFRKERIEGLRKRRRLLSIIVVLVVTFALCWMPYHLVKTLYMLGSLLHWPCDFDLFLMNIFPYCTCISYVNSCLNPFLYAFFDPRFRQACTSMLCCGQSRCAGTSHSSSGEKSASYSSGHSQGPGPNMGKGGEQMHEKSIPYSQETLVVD

According to patent US11191762B2, “Alkyl substituted triazole compounds as agonists of the APJ Receptor” (priority 2016, dated 2021):

Assays:
APJ receptor [1] = target: T1, APJ receptor (Homo sapiens (Human), UniProt P35414); assay: biochemical
Protocol: The human APJ receptor was cloned by polymerase chain reaction and the gene encoding the receptor was subcloned in pFLAG-CMV™-3 expression vector (Sigma, Saint Louis, Mo. USA) in-house at Amgen. A GTPγS binding assay was performed on membranes prepared from CHO cells stably expressing human APJ receptor. The optimum experimental conditions for the concentrations of GDP, MgCl2, and NaCl in the assay buffer were initially determined. The assay was performed in 9 μL assay buffer [20 mM HEPES, pH 7.5, 5 mM MgCl2, 100 mM NaCl and 0.1% (w/v) BSA], 1 μL of diluted test compound (starting with 0.75 mM, 2-fold serial dilution with DMSO, total 22 points), 10 μL of 18 µM GDP (final concentration of 3 μM GDP), 20 μL of […] membrane protein expressing human APJ receptor captured with WGA PS beads (final concentration of 5 μg per well), and 20 μL of 0.3 nM [^35S]GTPγS (final concentration is 0.1 nM [^35S]GTPγS)(Perkin Elmer Life and Analytical Sciences, Waltham USA).

APJ receptor [2] = target: T1, APJ receptor; conditions: cited from earlier work

Molecule | EC50 (APJ receptor [1]) [nM] | in vitro affinity to the APJ receptor relative to apelin-36 (APJ receptor [2]) [fold]
CCc1nnc(NS(=O)(=O)[C@@H](C)[C@H](OC)c2ncc(Cl)cn2)n1-c1c(OC)cccc1OC [Example 66.0, (1R,2S)-1-(5-chloropyrimidin-2-yl)-N-(4-(2,6-dimethoxyphenyl)-5-ethyl-4H-1,2,4-triazol-3-yl)-1-methoxypropane-2-sulfonamide] | 2.3 | 
Apelin-13 |  | ~3.5
